Measured values reported in IntAct's records for PubMed 16525023.

B1: RAC-alpha serine/threonine-protein kinase (Homo sapiens), P31749 (parent)
chain: MSDVAIVKEGWLHKRGEYIKTWRPRYFLLKNDGTFIGYKERPQDVDQREAPLNNFSVAQCQLMKTERPRPNTFIIRCLQWTTVIERTFHVETPEEREEWTTAIQTVADGLKKQEEEEMDFRSGSPSDNSGAEEMEVSLAKPKHRVTMNEFEYLKLLGKGTFGKVILVKEKATGRYYAMKILKKEVIVAKDEVAHTLTENRVLQNSRHPFLTALKYSFQTHDRLCFVMEYANGGELFFHLSRERVFSEDRARFYGAEIVSALDYLHSEKNVVYRDLKLENLMLDKDGHIKITDFGLCKEGIKDGATMKTFCGTPEYLAPEVLEDNDYGRAVDWWGLGVVMYEMMCGRLPFYNQDHEKLFELILMEEIRFPRTLGPEAKSLLSGLLKKDPKQRLGGGSEDAKEIMQHRFFAGIVWQHVYEKKLSPPFKPQVTSETDTRYFDEEFTAQMITITPPDQDDSMECVDSERRPHFPQFSYSASGTA
partner: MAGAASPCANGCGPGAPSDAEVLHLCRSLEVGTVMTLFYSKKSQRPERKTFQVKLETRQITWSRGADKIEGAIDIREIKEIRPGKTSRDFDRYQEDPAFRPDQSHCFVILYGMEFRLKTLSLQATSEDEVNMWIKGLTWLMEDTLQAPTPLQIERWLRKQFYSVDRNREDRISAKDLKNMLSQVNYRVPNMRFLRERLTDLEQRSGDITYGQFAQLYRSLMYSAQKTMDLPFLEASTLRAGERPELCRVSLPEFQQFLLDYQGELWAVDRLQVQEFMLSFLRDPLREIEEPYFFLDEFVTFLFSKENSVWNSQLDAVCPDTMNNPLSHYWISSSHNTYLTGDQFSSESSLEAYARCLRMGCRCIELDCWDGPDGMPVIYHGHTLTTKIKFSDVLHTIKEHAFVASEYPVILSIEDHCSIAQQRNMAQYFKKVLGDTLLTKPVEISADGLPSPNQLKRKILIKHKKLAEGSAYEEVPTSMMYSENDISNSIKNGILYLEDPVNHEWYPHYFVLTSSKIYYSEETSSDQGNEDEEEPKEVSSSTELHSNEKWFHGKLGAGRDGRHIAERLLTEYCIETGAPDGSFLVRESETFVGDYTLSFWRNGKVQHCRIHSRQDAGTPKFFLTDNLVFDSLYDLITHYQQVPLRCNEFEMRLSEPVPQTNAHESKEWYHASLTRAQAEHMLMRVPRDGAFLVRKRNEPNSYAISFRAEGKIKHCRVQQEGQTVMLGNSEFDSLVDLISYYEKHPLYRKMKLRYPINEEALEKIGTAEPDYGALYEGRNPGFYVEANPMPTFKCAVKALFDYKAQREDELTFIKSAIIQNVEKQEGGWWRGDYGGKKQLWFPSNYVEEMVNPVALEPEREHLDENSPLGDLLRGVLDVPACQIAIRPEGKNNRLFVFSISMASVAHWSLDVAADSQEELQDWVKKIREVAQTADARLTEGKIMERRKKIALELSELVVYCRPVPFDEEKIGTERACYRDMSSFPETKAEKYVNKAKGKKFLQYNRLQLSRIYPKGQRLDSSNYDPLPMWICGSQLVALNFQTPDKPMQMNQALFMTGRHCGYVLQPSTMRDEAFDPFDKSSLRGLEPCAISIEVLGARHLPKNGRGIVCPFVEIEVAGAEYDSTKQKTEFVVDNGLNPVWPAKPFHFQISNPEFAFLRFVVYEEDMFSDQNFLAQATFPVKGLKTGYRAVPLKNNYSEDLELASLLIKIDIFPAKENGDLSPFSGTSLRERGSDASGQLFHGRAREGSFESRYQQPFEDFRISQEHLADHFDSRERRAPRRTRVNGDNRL

Variants of: B1
Settings: with plcg1_human PLCG1, P19174

Row | Variant | effect of a mutation on the interaction
1 | P424A | decreasing interaction
2 | P467A | decreasing interaction
